pEC50: −log10 of the molar value.
Legend:
[1] = target: Kappa-type opioid receptor (Homo sapiens, UniProt P41145); test: Time Resolved Fluorescence Resonance Energy Transfer (TR-FRET)-Based cAMP Immunoassay
[2] = target: Kappa-type opioid receptor (Mus musculus, UniProt P33534); test: as above

Protein sequences, listed by entry. Tags and fused reporters are not part of them. Lines headed by an entry give the natural chain unless they say otherwise; changes in a name come on top.
UniProt P41145: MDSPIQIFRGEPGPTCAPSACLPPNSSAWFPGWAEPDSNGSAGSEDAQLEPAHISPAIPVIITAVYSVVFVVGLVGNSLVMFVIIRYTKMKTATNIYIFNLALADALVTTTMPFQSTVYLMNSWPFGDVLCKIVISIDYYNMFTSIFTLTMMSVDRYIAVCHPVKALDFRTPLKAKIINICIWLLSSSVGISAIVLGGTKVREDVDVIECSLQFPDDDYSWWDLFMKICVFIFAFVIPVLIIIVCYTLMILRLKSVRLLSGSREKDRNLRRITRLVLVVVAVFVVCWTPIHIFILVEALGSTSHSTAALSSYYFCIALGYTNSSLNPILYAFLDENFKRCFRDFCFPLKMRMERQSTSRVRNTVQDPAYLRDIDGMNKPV
UniProt P33534: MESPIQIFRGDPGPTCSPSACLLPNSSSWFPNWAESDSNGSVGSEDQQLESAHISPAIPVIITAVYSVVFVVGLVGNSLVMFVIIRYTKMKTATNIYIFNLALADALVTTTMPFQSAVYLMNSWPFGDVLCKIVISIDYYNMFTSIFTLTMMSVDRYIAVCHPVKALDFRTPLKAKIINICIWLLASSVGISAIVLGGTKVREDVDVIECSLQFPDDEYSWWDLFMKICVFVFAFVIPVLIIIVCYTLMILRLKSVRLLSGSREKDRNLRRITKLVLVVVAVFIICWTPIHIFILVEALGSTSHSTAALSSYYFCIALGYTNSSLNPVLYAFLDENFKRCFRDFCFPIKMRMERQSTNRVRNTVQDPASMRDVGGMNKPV

Compound: CC(C)C[C@@H](NC(=O)[C@@H](Cc1ccccc1)NC(=O)[C@H](N)Cc1ccccc1)C(=O)N[C@H](CCCCN)C(=O)N1CCC2(CC1)C(=O)NCN2c1ccccc1
- pEC50 [1]: 10.78
- pEC50 [2]: 10.12

From BindingDB's records for US9359399
